# Ab-95 light chain CDR variants: yeast mating affinities

Source: Engelhart et al. 2022 (doi:10.1038/s41597-022-01779-4), MIT Lincoln Laboratory and A-Alpha Bio; data file from the FLAb repository.

Antigen: PDVDLGDISGINAS, a 14-residue peptide of the SARS-CoV-2 spike HR2 region.

Parent scFv Ab-95: VH joined to VL by a 15-residue (Gly4Ser)3 linker. Changes lie in the light chain CDRs alone.
VH: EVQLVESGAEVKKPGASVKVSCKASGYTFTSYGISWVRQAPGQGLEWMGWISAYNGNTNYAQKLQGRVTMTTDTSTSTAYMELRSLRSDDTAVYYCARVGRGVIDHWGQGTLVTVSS
VL: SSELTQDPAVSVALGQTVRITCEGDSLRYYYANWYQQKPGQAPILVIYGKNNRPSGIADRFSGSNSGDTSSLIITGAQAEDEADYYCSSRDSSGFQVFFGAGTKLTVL

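Phage display of a naive human antibody library on the peptide gave the parent. The library (AAYL52) carries one to three amino acid substitutions per variant, with no insertions or deletions. In AlphaSeq, yeast of one mating type display the scFv and yeast of the other type display the target. The frequency of each diploid, read from paired DNA barcodes, reflects how well the two displayed proteins bind. Read counts were normalised to the haploid input and turned into Kd by a linear fit to BCL2-family pairs of known affinity, for each replicate. Each pool was mated in three replicate cultures.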

Variants are written as CDR1, CDR2 and CDR3 of the light chain (limits as in the source). Parent: EGDSLRYYYAN, GKNNRPS, SSRDSSGFQVF. The read-out is the apparent dissociation constant on a log10 scale (nM): the lower, the stronger. Replicates are averaged; those with no signal do not enter the mean. Where no diploid with the target was found in any replicate, the entry reads "no signal": below detection, most likely a poor binder, though not proof of it.

CDR-L1 | CDR-L2 | CDR-L3 | mean log10 Kd (nM) | replicates with signal
CGHSLRYYYAE | GKNNRPS | SSRDSSGFQVF | no signal | 0/3
EGDSLRYYYAN | GKNNTPS | SSRDQSGFDVF | 2.70 | 3/3
EGDSLRYYYAN | GKNNRPS | SSFDSDGFQVF | 2.33 | 3/3
EMDSLRYYYAN | GKQNRPS | SSGDSSGFQVF | 4.55 | 2/3
EGDSLRYYNAN | GKNNRPS | SSRDSSGFWWF | 3.14 | 3/3
VGDQLRYYYAN | GRNNRPS | SSRDSSGFQVF | 3.17 | 2/3
EGDSVRYYYAN | GKNNGPS | SSRDSSGWQVF | no signal | 0/3
EGDSLRYYYAN | GKNNRSS | SGRDSSGFQVF | 2.53 | 3/3
EGDSSRYYYAN | GKNLRPS | SCRDSSGFQVF | 2.62 | 3/3
EGDSLFYYFAN | GKNNRPS | SSRDSSGFQVF | 3.14 | 3/3
EGDSLRYYYVN | GKNNRPS | SSRDSSDFQVI | 2.46 | 3/3
EGDSLKYYVAN | GKNNRPS | SSRDPSGFQVF | 2.45 | 3/3
EGDSLRYCYAN | GKNLRPS | SSRDSSGHQVF | 2.45 | 3/3
EGDSIRYYYDN | GKNNRPS | SSRDSSGFQVG | 3.65 | 3/3
EGDSLRCYNAN | GKVNRPS | SSRDSSGFQVF | 3.91 | 3/3
EGVSLRYYYAN | GKDNRPS | SSRDSSGFKVF | 3.60 | 3/3
EGDPLLYYYAN | GKNNRPS | SCRDSSGFQVF | 2.42 | 3/3
EGDSLRIYYAN | GKNNRPS | KSRDSSGFQVA | 3.26 | 2/3
EGTSLRYYYAN | GKNNRHS | SSRDSSGFQVW | no signal | 0/3
EGDSLRYYYAN | GWNNRPK | SSRDSPGFQVF | no signal | 0/3
EGDSLRYYCAN | GKNNRPS | SSRDSSDFQVC | 3.33 | 3/3
EGDSLVYYYAN | GKNNRPD | SSRDSSGVQVF | 2.73 | 3/3
EGDSNRYYYAN | GKNNRPM | SSRDSSWFQVF | 2.79 | 1/3
EGMSLRYYYAN | GKNNRPS | SSRHSSGFQQF | 2.53 | 3/3
TGDSLTYYYAN | GKNNRPS | LSRDSSGFQVF | no signal | 0/3
EGDSLRYPYAN | GKNNRPS | SSRDSSGFQAF | 2.11 | 3/3
EGDPLTYYYAN | GANNRPS | SSRDSSGFQVF | 3.70 | 3/3
EGDSLRYYYAN | GKNNRPS | SSRPWSGFQVF | no signal | 0/3
EGHSLRYYYAN | GKNNRPS | SSRDSSGFQVV | 4.13 | 2/3
EGRSLRYYYAN | GKSNFPS | SSRDSSGFQVF | 3.75 | 2/3
EGDSLRYPYAN | GKNNRPS | SSRDSSGSQVF | 2.82 | 3/3
EGDSLRYYYCN | GKNNRPS | SSRDSSGFHVF | 2.69 | 3/3
EGDSLRYYYAN | GNNNRPT | SSRDSSGMQVF | 2.42 | 3/3
DGDSLRTYYAN | GKNNRAS | SSRDSSGFQVF | 1.44 | 3/3
MGDSLRYYYHN | GKNNRPS | SSRDSSGFQVF | 3.28 | 3/3
EGDSLAYYYAN | GKNNRPS | SSRDSQGFQFF | 3.82 | 2/3
EGDSLSYYYAN | GKNNRPS | SSQDSSGFQGF | no signal | 0/3
EGDSLKYYYAN | GKNLRPS | SSRDSSDFQVF | no signal | 0/3
EGDSDRYYYAN | GKNNRPS | SSRDSSGDNVF | 3.75 | 2/3
EGDSLRYYYAW | GKIWRPS | SSRDSSGFQVF | 3.78 | 1/3
EGDSCRYYYAP | GKNNQPS | SSRDSSGFQVF | 4.64 | 1/3
EGDSLRYKYAN | GKNNRPS | SSLDSSIFQVF | 1.69 | 3/3
EGDSLRYYYAN | GKNNRCS | SSRDESGFQFF | 2.90 | 2/3
HGDSLRYYYAN | GKNNRPS | QSIDSSGFQVF | 3.89 | 1/3
EQDSLRYYYAI | GKNNRPS | SSRCSSGFQVF | 3.28 | 1/3
EGDSLRYYYAS | GKNNRPS | SARDSSGKQVF | 3.26 | 3/3
EGDFLRYYYAN | GKNNVPS | SSRDSSGFQVF | 3.78 | 2/3
EGKSLRYYYAN | GKNNRPS | SSRDSSGSQVW | 2.42 | 2/3
EGDSLRYVYAN | GKNNRPS | SSRDSSNFQNF | no signal | 0/3
EGDSLRYYYEN | GKNNRPS | GSRDPSGFQVF | 3.50 | 1/3
EGIALRYYYAN | HKNNRPS | SSRDSSGFQVF | 3.71 | 2/3
EGDSLRYYYAN | GKNNEPS | SSVDSSGFQVF | 4.26 | 3/3
EGGWLRYYYAN | GHNNRPS | SSRDSSGFQVF | 4.45 | 3/3
EGATLRYYYAN | GKNNRPS | SSRDSSGFQVF | 3.21 | 3/3
EGDSLKYYYAN | GHNNRPS | SERDSSGFQVF | no signal | 0/3
EGDNLRYYYAN | GKWNRPS | SSRDSSGFQVW | 3.55 | 3/3
EGDSLRYYYAN | GKNNRPS | SSLDHSGKQVF | 3.28 | 3/3
EGDDLRYWYAN | GKNNRPS | SSRDSSGFQPF | no signal | 0/3

The first 5 variants above that were never detected:

CDR-L1,CDR-L2,CDR-L3,mean log10 Kd (nM),replicates with signal
CGHSLRYYYAE,GKNNRPS,SSRDSSGFQVF,no signal,0/3
EGDSVRYYYAN,GKNNGPS,SSRDSSGWQVF,no signal,0/3
EGTSLRYYYAN,GKNNRHS,SSRDSSGFQVW,no signal,0/3
EGDSLRYYYAN,GWNNRPK,SSRDSPGFQVF,no signal,0/3
TGDSLTYYYAN,GKNNRPS,LSRDSSGFQVF,no signal,0/3

For reference, the parent read 2.31 as the reference entry and 2.25 as a member of this library. Empty control strains, which show no peptide, gave a signal in 28% of pairings with library AAYL52; the median was 3.91 and 95% of these signals were weaker than 2.90. No background was subtracted.